From patent publication US20260355196A1, “INHIBITORS AND DEGRADERS OF PIP4K PROTEIN” (Larkspur Biosciences, Inc., priority 2023, published 2026)

Amino acid sequences for entries named in this document (tags omitted).
UniProt Q8TBX8, whole entry: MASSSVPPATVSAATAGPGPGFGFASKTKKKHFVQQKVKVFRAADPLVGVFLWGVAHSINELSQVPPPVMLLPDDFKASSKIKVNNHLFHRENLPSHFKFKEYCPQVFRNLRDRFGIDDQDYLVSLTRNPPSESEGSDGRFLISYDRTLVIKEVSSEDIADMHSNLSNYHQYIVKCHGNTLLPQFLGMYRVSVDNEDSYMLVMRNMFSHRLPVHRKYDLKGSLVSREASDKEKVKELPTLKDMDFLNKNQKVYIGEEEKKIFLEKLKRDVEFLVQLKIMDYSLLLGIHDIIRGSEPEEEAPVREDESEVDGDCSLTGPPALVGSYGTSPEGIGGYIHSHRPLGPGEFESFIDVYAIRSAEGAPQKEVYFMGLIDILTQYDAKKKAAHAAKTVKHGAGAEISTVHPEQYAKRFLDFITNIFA

Target: PIP4K2C (Homo sapiens, UniProt Q8TBX8)
Test: HiBiT PIP4K2C degradation assay in MOLT-4 cells (endogenous PIP4K2C C-terminally tagged with HiBiT)
Settings: read-out: HiBIT-degradation MOLT4 PIP4k2C 24 hours DC50; 24 hours incubation, MOLT-4, top concentration 10 micromolar
Source text: Example B-2: HiBiT PIP4K2C degradation assay
Materials: MOLT-4, a human T lymphoblast cell line (see https://www.atcc.org/products/crl-1582, herein incorporated by reference in its entirety), was genetically engineered using CRISPR-Cas9 by Synthego Corporation (Redwood City, CA) to C-terminally tag endogenous PIP4K2C with HiBiT peptide. Following clonal selection, genotype was confirmed by Sanger sequencing. MO LT-4 were maintained using RPMI-1640 medium from Gibco (Grand Island, NY, catalog number 11875-085) supplemented with 10% fetal bovine serum (FBS) from VWR (Philadelphia, PA, catalog number 97068-085). For HiBiT assays the cells were resuspended in RPMI-1640 medium without phenol read from Gibco (Grand Island, NY, catalog number 11835-030) supplemented with 10% FBS. Nano-Glo® HiBiT Lytic Assay System was purchased from Promega (Madison, WI, Catalog number N3030). Cell culture flasks and 384-well microplates were purchased from Corning (Glendale, AZ).
To study PIP4K2C degradation, 384-well plates were plated with a 10-point dose response curve, 3-fold dilution, in duplicate with a top starting concentration of 10 micromolar. Subsequently 22,500 cells were added to each well and incubated at 37 C in 5% C02 for 24 hours or 6 hours. […] Luminescence was measured with a PHERAstar FSX plate reader (BMG Labtech, Cary, NC). […]

| DC50 [µM] | SMILES |
| --- | --- |
| < 0.5 | Cn1nc(C2CCC(=O)NC2=O)c2ccc(C3CCN([C@H]4CC[C@H](CNC(=O)[C@H]5CCC[C@@H](Nc6ncc(F)c(-c7cccc(-n8ccccc8=O)c7)n6)C5)CC4)CC3)cc21 (relative stereo) |
| < 0.5 | O=C1CCC(n2c(=O)oc3cc(C4CCN(CCC5CCN(C(=O)[C@H]6CCC[C@@H](Nc7ncc(F)c(-c8cccc(-n9ccccc9=O)c8)n7)C6)CC5)CC4)ccc32)C(=O)N1 (relative stereo) |
